The test concerns the target human DNM2 (recombinant, produced in Sf9 insect cells with the baculovirus system) (human) (UniProt P50570). The experiment in a line: cell-based or functional assay.

Consider “GST-BIN1 (recombinant human BIN1, full length isoform 8, with GST tag, produced in E. coli) (from UniProt O00499 2-593)”, for which the mean liposome diameter after incubation with DNM2+GTP and BIN1 stood at 108.

The values above are taken from US20220184176A1.
